Columns and labels:
[1] = system: O=C(O)[C@@H]1CCCN1; assay: purified protein; details: 0.2 M NaOAc pH 6, 37 C, 10-160 mM substrate, PLP-independent
[2] = system: O=C(O)[C@H]1CCCN1; assay: purified protein; details: 0.2 M NaOAc pH 6, 37 C, 10-160 mM substrate, PLP-independent

Work on CdPRAC (Clostridioides difficile) yielded a Km [1] of 60.2 mM and a Km [2] of 46.7 mM.

From article PMC1964878
